Source: patent US4613608A (priority 1982, dated 1986)

How the values were obtained:
[1] = test system: large coronary artery; conditions: for ED50 Large (L): large coronary artery strips (2.0 mm outside diameter), 35 mM KCl tonus, papaverine 10^-4 M = 100%; for S/L: ratio of ED50 small to ED50 large coronary artery
[2] = test system: small coronary artery; conditions: small coronary artery strips (0.5 mm outside diameter), 35 mM KCl tonus, papaverine 10^-4 M = 100%

| SMILES | ED50 Large (L) [1] [µg/mL] | S/L [1] | ED50 Small (S) [2] [µg/mL] |
| --- | --- | --- | --- |
| O=[N+]([O-])OCc1cccc(CO[N+](=O)[O-])n1 | 0.004 (≈ 0.0175 µM) | 56.3 | 0.225 (≈ 0.982 µM) |
| O=[N+]([O-])OCc1cc(Cl)cc(CO[N+](=O)[O-])n1 | 0.00275 (≈ 0.0104 µM) | 83.6 | 0.23 (≈ 0.873 µM) |

Converted amounts (≈) assume the structure as drawn.
